Earlier results as cited in publication PMC11739085, “A novel non-invasive murine model for rapidly testing drug activity via inhalation administration against Mycobacterium tuberculosis” (Frontiers in Pharmacology, 2025).

Design: method as in Grewal et al., 2018; Grosset et al., 1992; Lyons et al., 2013
Details: mice, oral administration; ref Grewal et al., 2018; Grosset et al., 1992; Lyons et al., 2013; cited from earlier work

CO[C@H]1/C=C/O[C@@]2(C)Oc3c(C)c(O)c4c(O)c(c(/C=N/N5CCN(C)CC5)c(O)c4c3C2=O)NC(=O)/C(C)=C\C=C\[C@H](C)[C@H](O)[C@@H](C)[C@@H](O)[C@@H](C)[C@H](OC(C)=O)[C@@H]1C [RIF, rifampicin]
time of highest plasma concentration post-administration: 1.33 h
